From ChEMBL document CHEMBL1127675, “Benzo[f]quinazoline inhibitors of thymidylate synthase: methyleneamino-linked aroylglutamate derivatives” (J Med Chem, 1994)

Key:
[1] = tested on: Folylpolyglutamate synthetase (Sus scrofa); assay: Substrate selectivity for hog liver Folyl-polyglutamate synthase was assessed from Vm
[2] = Ratio of Vm and Km values, a measure of Substrate selectivity for hog liver folyl-poly-glutamate synthetase

- Vm [1]: 66%
- Ratio [2]: 2.7
Structure (SMILES): Nc1nc(O)c2c(ccc3ccc(CNc4ccc(C(=O)N[C@@H](CCC(=O)O)C(=O)O)cc4)cc32)n1
